Data from patent publication US8742132B2, “Indolylmaleimide derivatives processes for their production and pharmaceutical compositions” (Novartis AG, priority 2006, dated 2014).

Target: Human recombinant PKCα (Homo sapiens, UniProt P17252)
Assay: Protein Kinase Cα Assay
Settings: read-out: IC50 PKCα; single compounds
Procedure: The compounds of the invention are tested for their activity on different PKC isoforms according to the following method. Assay is performed in a white with clear bottom 384-well microtiterplate with non-binding surface. The reaction mixture (25 μl) contains 1.5 μM of a tridecapeptide acceptor substrate that mimics the pseudo substrate sequence of PKC a with the Ala→Ser replacement, 10 μM ^33P-ATP, 10 mM Mg(NO3)2, 0.2 mM CaCl2, PKC at a protein concentration varying from 25 to 400 ng/ml (depending on the isotype used), lipid vesicles (containing 30 mol % phosphatidylserine, 5 mol % DAG and 65 mol % phosphatidylcholine) at a final lipid concentration of 0.5 mM, in 20 mM Tris-HCl buffer pH 7.4 +0.1% BSA. Incubation is performed for 60 min at room temperature. Reaction is stopped by adding 50 μl of stop mix (100 mM EDTA, 200 μM ATP, 0.1% Triton X-100, 0.375 mg/well streptavidin-coated SPA beads in phosphate buffered saline w/o Ca, Mg. After 10 min incubation at room temperature, the suspension is spun down for 10 min at 300 g. Incorporated radioactivity is measured in a Trilux counter for 1 min. IC50 measurement is performed on a routine basis by incubating a serial dilution of inhibitor at concentrations ranging between […]. IC50 values are calculated from the graph by curve fitting with XL Fit® software. […]

Cc1nn2ccc(CN(C)C)cc2c1C1=C(c2c[nH]c3c(C)cccc23)C(=O)NC1=O
IC50: 1.4 nM
